Tests used:
[1] = target: GlyT2 (Rattus norvegicus, UniProt P58295); assay: FLIPR membrane potential assay for GlyT2 target activity (T-rex-293-rGlyT2 cells); assay type: cell-based; settings: 10 uM compound, then glycine; relative to ORG25543 (500 nM) defined as 100%
Protocol: GlyT2 (Glycine transporter type 2) is an electrogenic carrier associated with Na^+/Cl^− ion transportation, primarily distributed around the spinal cord part, and has an important role in the transfer of a pain signal in the spinal cord.
In order to identify the fact that the novel compound of the present invention has GlyT2 targeting activity, a membrane potential assay was performed. FLIPR Membrane Potential Assay is used to measure ion channel modulation caused by an increase or decrease in fluorescence signal due to variations of cellular membrane potential.
First, pcDNA4/TO vector encoding GlyT2 of the rat in HEK293 cell was transfected to prepare a stable recombinant cell line, i.e., T-rex-293-rGlyT2. A […] (Greiner #655090) coated with poly-D-lysine was prepared, and the above recombinant cells (T-rex-293-rGlyT2) were seeded at 3.2×10^4/well therein using a medium containing 15 μg/ml of tetracycline. After this, incubation was conducted at 37° C. for 48 hours under 5% CO2 conditions to express GlyT2. 10 ml of assay buffer (1×HBSS, 20 mM HEPES, pH 7.4) was added to a blue dye solution and sufficiently dissolved therein to prepare a membrane potential dye solution. After removing the medium from the well showing GlyT2 expression, the membrane potential dye solution was added to the well in an amount of 100 μl/well and incubated for 20 minutes.
According to the FLIPR Membrane Potential Assay kit's protocol, SoftMax Pro Software of FlexStation 3 software (Molecular Devices, US) was set up. An extent of GlyT2 expression was determined such that the extent of cellular membrane depolarization relative to an administered amount of glycine during glycine treatment is indicated in relative fluorescence units (RFU), and RFU (Max-Min) is calculated by subtracting the minimum value from the maximum value of RFU. After firstly treating 10 uM of the novel compound according to the present invention, glycine was treated and RFU (Max-Min) for glycine administration was determined. Then, with the determined result, the extent of depolarization inhibition (% inhibition) was assessed for each compound, compared to a positive control.
The positive control used herein was ORG25543 (500 nM) having strong inhibitory efficacy specific to GlyT2.
For GlyT2 inhibitory efficacy, the efficacy of the compound ORG25543 (500 nM) was defined as 100%. Similarly, for 5HT2A inhibitory efficacy, the efficacy of MDL11939 (100 nM) was defined as 100%. Therefore, the target inhibitory efficacy of each compound was indicated in a relative value compared to the above defined efficacy.

Chains of the proteins cited; added tags and fusions are not shown. Lines headed by an entry give the natural chain unless they say otherwise; changes in a name come on top.
UniProt P58295: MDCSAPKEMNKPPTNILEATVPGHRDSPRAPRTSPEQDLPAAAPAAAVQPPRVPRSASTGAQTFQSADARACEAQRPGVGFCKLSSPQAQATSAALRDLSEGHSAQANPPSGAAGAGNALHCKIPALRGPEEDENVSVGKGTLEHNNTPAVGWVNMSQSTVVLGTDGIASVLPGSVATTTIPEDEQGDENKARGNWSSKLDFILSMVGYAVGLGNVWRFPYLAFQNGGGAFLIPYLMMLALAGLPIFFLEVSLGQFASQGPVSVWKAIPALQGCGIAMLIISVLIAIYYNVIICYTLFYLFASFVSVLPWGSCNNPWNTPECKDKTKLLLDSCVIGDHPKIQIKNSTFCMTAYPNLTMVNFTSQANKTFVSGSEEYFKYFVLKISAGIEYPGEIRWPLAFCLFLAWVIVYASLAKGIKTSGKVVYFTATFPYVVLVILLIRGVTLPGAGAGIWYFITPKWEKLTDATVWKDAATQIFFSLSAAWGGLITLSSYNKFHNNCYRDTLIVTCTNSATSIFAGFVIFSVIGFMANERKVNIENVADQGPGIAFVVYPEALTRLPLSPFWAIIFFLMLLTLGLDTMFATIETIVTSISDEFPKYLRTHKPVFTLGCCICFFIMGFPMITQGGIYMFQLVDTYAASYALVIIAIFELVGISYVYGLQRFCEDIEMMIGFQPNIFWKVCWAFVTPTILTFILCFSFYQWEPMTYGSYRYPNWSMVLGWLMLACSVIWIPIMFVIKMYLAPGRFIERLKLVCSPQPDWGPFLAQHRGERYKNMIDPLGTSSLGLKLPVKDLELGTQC
UniProt P28223, whole entry, looked up: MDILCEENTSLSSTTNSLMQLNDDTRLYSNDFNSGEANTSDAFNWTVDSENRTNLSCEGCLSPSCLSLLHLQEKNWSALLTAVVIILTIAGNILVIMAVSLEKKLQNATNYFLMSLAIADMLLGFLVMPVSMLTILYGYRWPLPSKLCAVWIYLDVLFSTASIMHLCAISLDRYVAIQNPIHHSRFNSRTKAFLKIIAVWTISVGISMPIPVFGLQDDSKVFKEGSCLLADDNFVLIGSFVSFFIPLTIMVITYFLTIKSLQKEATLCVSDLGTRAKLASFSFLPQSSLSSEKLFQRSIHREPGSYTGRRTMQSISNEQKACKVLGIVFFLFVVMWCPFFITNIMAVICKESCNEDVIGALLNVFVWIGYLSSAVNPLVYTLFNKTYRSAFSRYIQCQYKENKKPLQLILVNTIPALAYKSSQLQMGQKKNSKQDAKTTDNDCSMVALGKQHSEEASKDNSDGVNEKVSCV

[2] = target: 5HT2A (Homo sapiens, UniProt P28223); assay: FLIPR calcium assay for 5HT2A target activity (transfected HEK293 cells); assay type: cell-based; settings: 10 uM compound, then serotonin; relative to MDL11939 (100 nM) defined as 100%

Structure (SMILES)	GlyT2 % inhibition [1] [%]	5HT2A % inhibition [2] [%]
CCCCOc1c(C)cc(C(=O)NCC2(N(C)C)CCC(F)(F)CC2)cc1C	101.9	56.1
CCCCOc1ccc(C(=O)NCC2(N3CCN(C)CC3)CCCCC2)cc1	42.2	121.4
CCCCOc1ccc(C(=O)NCC2(N(C)C)CCC(F)(F)CC2)cc1	59.3	77.0
CN(C)C1(CNC(=O)c2ccc(OCc3ccccc3)cc2)CCC(F)(F)CC1	96.0	113.0

Reference: patent US9359346B2, “Benzamide derivative and use thereof” (VIVOZON, INC., priority 2011, dated 2016)
